Source: patent publication US7364741

Molecular target: HLA-A2.1 molecules expressed by 174CEM.T2 cells (human)
Assay: T2 HLA-A2.1 stabilisation, flow cytometry (BB7.2), peptide 200 ug/ml

Binder: KLPQLCTEL (modifications not checked) [… (residues 18-26 of HPV16 protein E6)]
- MF (mean fluorescence): 169
